Results: US8846929B2, “Substituted-quinoxaline-type piperidine compounds and the uses thereof” (priority 2007, dated 2014)

Tests used:
kappa opioid receptor = kappa opioid receptor (Homo sapiens (Human), UniProt P41145); experiment: In vitro kappa-opioid receptor [35S]GTPγS functional assay; type: biochemical; details: mean ± SEM; for EC50: read-out: GTPγS Opioid Receptor Kappa EC50
[1] = biological target: human opioid receptor-like (ORL-1) (Homo sapiens (Human), UniProt P41146); experiment: In vitro ORL-1 receptor [35S]GTPγS functional assay; type: biochemical; details: mean ± SEM; for EC50: read-out: GTPγS ORL-1 EC50

| Structure (SMILES) | GTPγS Opioid Receptor Kappa Emax (kappa opioid receptor) [%] | EC50 (kappa opioid receptor) [nM] | GTPγS ORL-1 Emax [1] [%] | EC50 [1] [nM] |
| --- | --- | --- | --- | --- |
| CONC(=O)c1nc2ccccc2n(C2CCN(C3CCCCCCC3)CC2)c1=O | 11.3 ± 1.5 | 1980 | 79 ± 2.5 |  |
| CC(=O)NC1CCN(c2nc3ccccc3n(C3CCN(C4CCCCCCC4)CC3)c2=O)CC1 | 6.83 ± 0.6 | 1900 | 73.7 ± 2.3 | 950 |
| COC(=O)[C@@H]1C[C@@H](O)CN1c1nc2ccccc2n(C2CCN(C3CCCCCCC3)CC2)c1=O |  |  | 80.3 ± 1.2 |  |
| O=c1c(NC(CO)CO)nc2ccccc2n1C1CCN(C2CCCCCCC2)CC1 | 16.7 ± 0.3 | 6570 | 78.3 ± 3.8 | 84.9 |
| O=C(O)c1ccc(CNC(=O)c2nc3ccccc3n([C@H]3C[C@H]4CC[C@@H](C3)N4C3CCCCCCC3)c2=O)nc1 |  |  | 44 ± 1.7 |  |
| CS(=O)(=O)NC1CCN(c2nc3ccccc3n(C3CCN(C4CCCCCCC4)CC3)c2=O)CC1 | 9.67 ± 1.5 | 3970 | 92.7 ± 3.5 |  |
| CCOC(=O)c1nc2ccccc2n([C@@H]2C[C@H]3CCC[C@@H](C2)N3C/C=C2\CCC3CC2C3(C)C)c1=O |  | > 20000 |  | 37.6 |
| CC(=O)N1CCC(Nc2nc3ccccc3n(C3CCN(C4CCCCCCC4)CC3)c2=O)CC1 | 9.33 ± 0.7 | 5400 | 76.3 ± 5.4 |  |
| O=c1c(NCC(O)CO)nc2ccccc2n1C1CCN(C2CCCCCCC2)CC1 (centres unmarked) |  |  | 79 ± 2.5 |  |
| CC(NC(=O)c1nc2ccccc2n([C@H]2C[C@H]3CC[C@@H](C2)N3C2CCCCCCC2)c1=O)C(=O)O (some centres unmarked) |  | 11800 |  |  |
| O=C(O)c1ccc(CNC(=O)c2nc3ccccc3n([C@H]3C[C@H]4CC[C@@H](C3)N4C3CCCCCCC3)c2=O)cc1 |  |  | 61.0 ± 0.6 |  |
| CCOC(=O)CN(C)c1nc2ccccc2n(C2CCN(C3CCCCCCC3)CC2)c1=O |  |  | 73.3 ± 2.3 |  |
| O=C(NO)c1nc2ccccc2n(C2CCN(C3CCCCCCC3)CC2)c1=O |  |  | 103.3 ± 5.2 | 92 |
| COC(=O)C(CO)Nc1nc2ccccc2n(C2CCN(C3CCCCCCC3)CC2)c1=O (centres unmarked) | 30 ± 1.5 |  | 112.7 ± 2.3 |  |
| CS(=O)(=O)NCCNc1nc2ccccc2n(C2CCN(C3CCCCCCC3)CC2)c1=O |  |  | 45.7 ± 1.8 | 900 |
| O=C(O)c1nc2ccccc2n([C@H]2C[C@H]3CC[C@@H](C2)N3C23CCC(CC2)C3)c1=O |  |  |  | 1860 |
| N=C(N)NCCNc1nc2ccccc2n(C2CCN(C3CCCCCCC3)CC2)c1=O |  |  | 85.3 ± 2.7 |  |
| O=c1ccc(Nc2nc3ccccc3n(C3CCN(C4CCCCCCC4)CC3)c2=O)c[nH]1 | 10 ± 0.6 | 5330 | 98.7 ± 9.5 | 169 |
| CC(=O)N[C@H]1CCN(c2nc3ccccc3n(C3CCN(C4CCCCCCC4)CC3)c2=O)C1 | 12 ± 0.6 | 5040 | 106.5 ± 3.8 |  |
| O=C(Nc1ccc(=O)[nH]c1)c1nc2ccccc2n(C2CCN(C3CCCCCCC3)CC2)c1=O |  |  | 102 ± 3.2 |  |
| CC(C)(C)OC(=O)N1CC2CN(c3nc4ccccc4n(C4CCN(C5CCCCCCC5)CC4)c3=O)CC2C1 (centres unmarked) | 30.5 ± 2.9 | 846 | 83 ± 1.5 | 1000 |
| CC1(N2[C@@H]3CCC[C@H]2C[C@@H](n2c(=O)c(C(=O)O)nc4ccccc42)C3)CCCCCCC1 |  |  | 117 ± 5 |  |
| O=C1CN(c2nc3ccccc3n([C@H]3C[C@H]4CC[C@@H](C3)N4C3CCCCCCC3)c2=O)CCN1 | 6.7 ± 1.8 | 382 | 78.7 ± 3 | 195 |

| Structure (SMILES) | GTPγS Opioid Receptor Kappa Emax (kappa opioid receptor) [%] | EC50 (kappa opioid receptor) [nM] | GTPγS ORL-1 Emax [1] [%] | EC50 [1] [nM] |
| --- | --- | --- | --- | --- |
| O=c1c(N2CC[C@H](O)C2)nc2ccccc2n1C1CCN(C2CCCCCCC2)CC1 |  |  | 101 ± 5.9 |  |
| NC(=O)c1nc2ccccc2n(C2CCN(C3CCCCCCC3)CC2)c1=O |  |  | 128 ± 4.7 | 97.8 |
| O=C1CCN(c2nc3ccccc3n(C3CCN(C4CCCCCCC4)CC3)c2=O)N1 |  |  | 62.0 ± 1.5 |  |
| N#Cc1nc2ccccc2n(C2CCN(C3CCCCCCC3)CC2)c1=O | 16 ± 0.6 | 2280 | 110.7 ± 2.9 |  |
| O=c1c(NC[C@@H](O)CO)nc2ccccc2n1C1CCN(C23CC4CC(CC(C4)C2)C3)CC1 |  |  | 74.3 ± 3.4 |  |
| CC(C)(C)OC(=O)NCCNc1nc2ccccc2n(C2CCN(C3CCCCCCC3)CC2)c1=O | 14.7 ± 1.5 | 9780 | 67.3 ± 1.9 |  |
| O=C(O)c1cccc(CNc2nc3ccccc3n([C@H]3C[C@H]4CC[C@@H](C3)N4C3CCCCCCC3)c2=O)c1 |  |  | 42.3 ± 2.9 |  |
| O=C(NCC(O)CO)c1nc2ccccc2n(C2CCN(C3CCCCCCC3)CC2)c1=O (centres unmarked) |  |  | 88.3 ± 2.4 |  |
| O=c1c(NCc2ccccc2)nc2ccccc2n1C1CCN(C2CCCCCCC2)CC1 | 34.7 ± 1.7 | 1640 | 85.3 ± 4.4 | 76 |
| CCOC(=O)CNc1nc2ccccc2n(C2CCN(C3CCCCCCC3)CC2)c1=O | 12 ± 1 | 5240 | 85.3 ± 5.0 |  |
| O=C(O)c1nc2ccccc2n([C@H]2C[C@H]3CC[C@@H](C2)N3C23CC4CC(CC2C4)C3)c1=O |  |  | 80 ± 4.8 |  |
| O=c1c(N2CC[C@@H](O)C2)nc2ccccc2n1C1CCN(C2CCCCCCC2)CC1 | 3.3 ± 0.7 | 2270 | 74.3 ± 6.0 |  |
| CN(CC(=O)O)C(=O)c1nc2ccccc2n([C@H]2C[C@H]3CC[C@@H](C2)N3C2CCCCCCC2)c1=O |  |  | 54.0 ± 2.3 |  |
| NC(=O)CCNc1nc2ccccc2n(C2CCN(C3CCCCCCC3)CC2)c1=O |  |  | 98.7 ± 4.4 |  |
| NC(=O)[C@@H]1CCCN1c1nc2ccccc2n(C2CCN(C3CCCCCCC3)CC2)c1=O |  |  | 86.3 ± 2.4 |  |
| CONC(=O)c1nc2ccccc2n([C@H]2C[C@H]3CC[C@@H](C2)N3C2CCCCCCC2)c1=O |  |  | 89.7 ± 5.4 |  |
| CC(C)(C)OC(=O)NC1CCN(c2nc3ccccc3n(C3CCN(C4CCCCCCC4)CC3)c2=O)CC1 |  |  | 71.7 ± 1.2 |  |
| O=C(O)c1cc(CNc2nc3ccccc3n([C@H]3C[C@H]4CC[C@@H](C3)N4C3CCCCCCC3)c2=O)ccc1O |  |  |  | 75.4 |
| O=C(O)c1nc2ccccc2n([C@H]2C[C@H]3CCCC[C@@H](C2)N3C2/C=C\CCCCC2)c1=O (some centres unmarked) |  |  | 89.7 ± 5.2 |  |
| O=C1CN(c2nc3ccccc3n(C3CCN(C4CCCCCCC4)CC3)c2=O)CCN1 |  |  | 69.0 ± 2.7 |  |
| NCC(O)CNc1nc2ccccc2n(C2CCN(C3CCCCCCC3)CC2)c1=O (centres unmarked) |  |  | 96 ± 2.9 |  |
| NC(=O)CNc1nc2ccccc2n([C@@H]2C[C@H]3CC[C@@H](C2)N3C2CCCCCCC2)c1=O |  |  |  | 3240 |
| O=c1c(NC[C@H](O)CO)nc2ccccc2n1C1CCN(C2CCCCCCC2)CC1 |  |  | 106.7 ± 3.7 |  |

| Structure (SMILES) | GTPγS Opioid Receptor Kappa Emax (kappa opioid receptor) [%] | EC50 (kappa opioid receptor) [nM] | GTPγS ORL-1 Emax [1] [%] | EC50 [1] [nM] |
| --- | --- | --- | --- | --- |
| COC(=O)[C@@H]1CCCN1c1nc2ccccc2n(C2CCN(C3CCCCCCC3)CC2)c1=O |  |  | 92.3 ± 0.9 |  |
| NC(=O)[C@H](CO)Nc1nc2ccccc2n([C@@H]2C[C@H]3CC[C@@H](C2)N3C2CCCCCCC2)c1=O |  |  | 86.3 ± 5.2 | 2430 |
| CC(C)(C)OC(=O)N1CCN(c2nc3ccccc3n(C3CCN(C4CCCCCCC4)CC3)c2=O)CC1 |  |  | 55.7 ± 4.2 |  |
| O=C(O)CN(CCNC(=O)c1nc2ccccc2n([C@H]2C[C@H]3CC[C@@H](C2)N3C23CC4CC(CC(C4)C2)C3)c1=O)CC(=O)O |  |  | 15 ± 1.2 |  |
| CN(CC(O)CO)c1nc2ccccc2n(C2CCN(C3CCCCCCC3)CC2)c1=O (centres unmarked) |  |  | 107.7 ± 3.3 |  |
| CC(C)CC(C)N1[C@@H]2CCC[C@H]1C[C@@H](n1c(=O)c(C(=O)O)nc3ccccc31)C2 (some centres unmarked) |  | 3270 |  |  |
| NC(=O)C1CCCN(c2nc3ccccc3n(C3CCN(C4CCCCCCC4)CC3)c2=O)C1 (centres unmarked) |  |  | 88.7 ± 6.3 |  |
| O=C(NCc1nn[nH]n1)c1nc2ccccc2n([C@H]2C[C@H]3CC[C@@H](C2)N3C2CCCCCCC2)c1=O |  |  |  | 647 |
| O=C(NOCc1ccccc1)c1nc2ccccc2n(C2CCN(C3CCCCCCC3)CC2)c1=O |  |  | 105.3 ± 1.7 |  |
| O=C(O)c1nc2ccccc2n(C2CC3CCCC(C2)N3C23CC4CC(CC2C4)C3)c1=O (centres unmarked) [compound 263, 4-(9-(hexahydro-2,5-methano-pentalen-3a-yl)-9-aza-bicyclo[3.3.1]non-3-yl)-3-oxo-3,4-dihydro-quinoxaline-2-carboxylic acid] |  |  | 69 ± 2.9 |  |
| O=c1c(NC[C@@H](O)CO)nc2ccccc2n1C1CCN(C2CCCCCCC2)CC1 |  |  | 100.3 ± 3.3 |  |
| NC(=O)CNc1nc2ccccc2n(C2CCN(C3CCCCCCC3)CC2)c1=O |  |  | 76 ± 0.6 |  |
| CN(C)c1nc2ccccc2n(C2CCN(C3CCCCCCC3)CC2)c1=O |  |  | 47.3 ± 2.0 |  |
| CNC(=O)c1nc2ccccc2n(C2CCN(C3CCCCCCC3)CC2)c1=O |  |  | 102.3 ± 5.7 |  |
| O=C(O)c1nc2ccccc2n([C@H]2C[C@H]3CCC[C@@H](C2)N3CCC2CCCCC2)c1=O |  |  | 20.7 ± 3.8 |  |
| NC(=O)[C@H](CO)Nc1nc2ccccc2n(C2CCN(C3CCCCCCC3)CC2)c1=O |  |  | 71.3 ± 3.7 |  |
| CSCCC(NC(=O)c1nc2ccccc2n([C@H]2C[C@H]3CC[C@@H](C2)N3C2CCCCCCC2)c1=O)C(=O)O (some centres unmarked) |  | 25000 |  |  |
| O=C(O)c1nc2ccccc2n([C@H]2C[C@H]3CCC[C@@H](C2)N3C2C3CC4CC(C3)CC2C4)c1=O (some centres unmarked) |  |  | 67.0 ± 5.8 |  |
| O=C(O)C1CCCN1C(=O)c1nc2ccccc2n([C@H]2C[C@H]3CC[C@@H](C2)N3C2CCCCCCC2)c1=O (some centres unmarked) |  |  | 82.3 ± 3.7 |  |
| CS(=O)(=O)N[C@@H]1CCN(c2nc3ccccc3n(C3CCN(C4CCCCCCC4)CC3)c2=O)C1 |  |  | 109.3 ± 5.4 |  |
| COC(=O)C1CCN(c2nc3ccccc3n(C3CCN(C4CCCCCCC4)CC3)c2=O)CC1 |  |  | 61 ± 2 |  |
